# According to PubChem BioAssay AID1508602 (The Scripps Research Institute Molecular Screening Center, 2020):
# Amino acid sequences for entries named in this document (tags omitted). A change or cut given only in a name is not applied to a line headed by its entry.
# UniProt Q8TDV0: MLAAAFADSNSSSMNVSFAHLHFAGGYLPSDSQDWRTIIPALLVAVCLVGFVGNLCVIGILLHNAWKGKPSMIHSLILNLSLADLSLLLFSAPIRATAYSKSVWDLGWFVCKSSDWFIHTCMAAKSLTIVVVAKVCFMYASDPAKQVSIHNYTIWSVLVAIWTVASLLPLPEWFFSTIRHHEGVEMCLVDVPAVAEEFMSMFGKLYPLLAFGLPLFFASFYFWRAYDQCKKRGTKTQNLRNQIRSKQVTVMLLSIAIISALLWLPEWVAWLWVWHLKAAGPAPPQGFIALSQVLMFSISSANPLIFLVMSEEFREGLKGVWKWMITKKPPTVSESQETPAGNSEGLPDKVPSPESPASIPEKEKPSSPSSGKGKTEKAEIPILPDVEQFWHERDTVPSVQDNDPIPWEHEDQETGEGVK
# The entries are a selection whose mix differs from that of the whole data set. Calls of active or inactive are those of the source. Rule as the data show it: active = activation above about 4.9%; inactive = the rest.
# Molecular target: G-protein coupled receptor 151 (Homo sapiens) (UniProt Q8TDV0)
# Assay: activates the human receptor GPR151, primary screen, cell-based, PathHunter beta-arrestin, luminescence (AID 1508602);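 also: 0% = median of compound wells and 100% = cells with positive control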
# Details: PathHunter beta-arrestin GPR151 cells, at 11.2 µM, active compounds read high
row,Compound,activation
1,Cc1ccc2nc(NCCCl)[nH]c2c1,inactive: -2.27%
2,CCOP(=O)(OCC)C(NC(=O)OC)C(Cl)(Cl)Cl (stereo not drawn),inactive: 0.903%
3,CCOC(=O)c1ccc(NC2=NCC(CBr)S2)cc1 (stereo not drawn),inactive: -0.681%
4,O=C(NNC1=NCC(CBr)S1)c1ccccc1 (stereo not drawn),inactive: -0.411%
5,CCOP1(=O)O/C(=C\Cl)CN1c1ccccc1 (stereo not drawn),inactive: -2.03%
6,O=[N+]([O-])c1ccc(NCCCCNc2ccc([N+](=O)[O-])cc2[N+](=O)[O-])c([N+](=O)[O-])c1,inactive: 1.36%
7,O=P1(Nc2nc3ccc(Cl)cc3s2)COc2ccccc2O1 (stereo not drawn),inactive: 0.506%
8,Cc1ccc([N+](=O)[O-])c2no[n+]([O-])c12,inactive: -1.55%
9,COC(=O)C(CC(C)C)NC(=O)NP(=O)(Oc1ccccc1)Oc1ccccc1 (stereo not drawn),inactive: -1.49%
10,Cc1cc(NC2=NC3C(C(=O)N(C)C(=O)N3C)N2C)n(-c2ccccc2)n1 (stereo not drawn),inactive: -2.85%
11,O=[N+]([O-])c1cc([N+](=O)[O-])c(N(CC(O)CO)c2ccccc2)c([N+](=O)[O-])c1 (stereo not drawn),inactive: -1.1%
12,O=C(c1cccnc1)N(Cc1ccco1)C1CCN(CCc2ccccn2)CC1,inactive: 1.81%
13,CCOP(=O)(OCC)C(OC(=O)C(Cl)(Cl)Cl)=C(Cl)Cl,inactive: 1.68%
14,CNc1c([N+](=O)[O-])cc([N+](=O)[O-])c2nonc12,inactive: -1.49%
15,O=P1(Nc2nncs2)C=C(c2ccccc2)SC(c2ccccc2)=C1,inactive: -0.832%
16,CN(C)c1ccc(/[N+]([O-])=C/c2c([N+](=O)[O-])cc([N+](=O)[O-])cc2[N+](=O)[O-])cc1,inactive: -1.68%
17,CCOP(=S)(NN(CCCl)c1ccccc1)OCC,inactive: 1.33%
18,CN(C(=O)Cc1ccc(Cl)c(Cl)c1)[C@@H]1CCCC[C@@H]1N1CCCC1,inactive: 2.5%
19,O=C(c1ccco1)N(Cc1cccnc1)C1CCN(CCc2ccccn2)CC1,inactive: -0.354%
20,CC(=O)O[C@H]1CN2CCC1[C@@H](c1ccccc1)C2 (stereo partly drawn),inactive: 0.248%

row,Compound,activation
1,CC(=O)N(Cc1ccco1)C1CCN(CCc2ccccn2)CC1,inactive: -1.33%
2,O=c1c2cc([N+](=O)[O-])ccc2[nH]c2c([N+](=O)[O-])cc([N+](=O)[O-])cc12,inactive: -1.08%
3,COc1ccc([N+](=O)[O-])cc1NC(=O)c1ccc([N+](=O)[O-])cc1[N+](=O)[O-],inactive: -0.315%
4,Cc1c([N+](=O)[O-])cc(C(=O)c2cc([N+](=O)[O-])c(C)c([N+](=O)[O-])c2)cc1[N+](=O)[O-],inactive: -1.46%
5,CN(C)c1ccc2c(c1)N1Cc3ccccc3C1=NP2(=O)c1ccccc1 (stereo not drawn),inactive: 0.328%
6,CC(C)OP(=O)(OC(C)C)C(C)N (stereo not drawn),inactive: -1.07%
7,CCOP(=O)(OCC)C(=O)c1ccccc1I,inactive: 1.35%
8,O=C(Nc1cccc(F)c1)N(Cc1cccnc1)C1CCN(CCc2cccs2)CC1,active: 5.2%
9,O=[N+]([O-])c1ccc(N/N=C/c2ccc([N+](=O)[O-])o2)c([N+](=O)[O-])c1,inactive: -0.614%
10,O=P1(c2ccccc2)N=C(c2ccccc2)NC(C(Cl)(Cl)Cl)=N1 (stereo not drawn),inactive: 0.8%
11,COC(=O)N(c1ccccc1)P1(=S)OCC(C)O1 (stereo not drawn),inactive: -0.264%
12,O=C(c1cccc([N+](=O)[O-])c1)c1ccc([N+](=O)[O-])c([N+](=O)[O-])c1,inactive: 1.6%
13,O=C(NNc1ccc([N+](=O)[O-])cc1[N+](=O)[O-])c1cccc([N+](=O)[O-])c1,inactive: -0.85%
14,ClC1CSc2nc3ccccc3n2C1 (stereo not drawn),inactive: -0.511%
15,O=C(COC(=O)C(O)(c1ccccc1)c1ccccc1)NC12CC3CC(CC(C3)C1)C2,inactive: -2.07%
16,COC(=O)N(c1ccccc1)P1OCC(C)O1 (stereo not drawn),inactive: -1.04%
17,CCOC(=O)C(C)NC(=O)CSP(=O)(OCC)OCC (stereo not drawn),inactive: -0.812%
18,O=C(OC1CN2CCC1CC2)c1cccc(Cl)c1 (stereo not drawn),inactive: -2.02%
19,CCOc1ccc(S(=O)(=O)N(CCCl)CCCl)cc1,inactive: 0.0133%
20,CC(C)OP(=O)(OC(C)C)N1CCCCC1,inactive: -0.591%

row,Compound,activation
1,Nc1nonc1OCc1nonc1COc1nonc1N,inactive: 0.951%
2,BrCC1Cn2c(nnc2-c2cccnc2)S1 (stereo not drawn),inactive: 0.13%
3,COc1ccc(/C=C2/C(=O)NC(=O)N(Cc3ccco3)C2=O)c(OC)c1,inactive: 0.88%
4,O=C(Nc1c(Cl)cc([N+](=O)[O-])cc1[N+](=O)[O-])c1ccc([N+](=O)[O-])cc1,inactive: 1.73%
5,O=C(Nc1cccc(F)c1)N(Cc1ccco1)C1CCN(CCc2ccccn2)CC1,inactive: -0.1%
6,O=P(/C=C(\Cl)c1ccccc1)(/C=C(\Cl)c1ccccc1)Nc1nncs1,inactive: 3.06%
7,CC(C)NC(=O)N(Cc1ccco1)C1CCN(CCc2cccs2)CC1,inactive: -0.0554%
8,CC1Cc2ccccc2N1C(=O)COC(=O)C(O)(c1ccccc1)c1ccccc1 (stereo not drawn),inactive: -0.276%
9,CNC(=O)c1nsnc1NCCCl,inactive: -0.71%
10,O=C(N/N=C/c1ccc([N+](=O)[O-])o1)c1cc([N+](=O)[O-])cc([N+](=O)[O-])c1,inactive: -0.82%
11,CCOP(=O)(Nc1cccc(F)c1)OCC,inactive: 2.03%
12,CC(C)NC(=O)N(Cc1cccnc1)C1CCN(CCc2cccs2)CC1,inactive: -1.47%
13,COc1ccc(S(=O)(=O)N(CCCl)CCCl)cc1,inactive: 0.255%
14,O=[N+]([O-])c1ccc(N/N=C/C=C/c2ccc([N+](=O)[O-])o2)c([N+](=O)[O-])c1,inactive: 0.306%
15,COc1ccc(CCN2CCC(N(Cc3ccco3)C(=O)c3cccc(C#N)c3)CC2)cc1,inactive: 3.03%
16,Cc1ccc(NP(=O)(OCC(C)C)OCC(C)C)nc1,inactive: -0.55%
17,C/C(=N\Nc1ccc([N+](=O)[O-])cc1[N+](=O)[O-])c1ccc([N+](=O)[O-])cc1,inactive: -1.85%
18,O=C(COc1ccccc1[N+](=O)[O-])N/N=C/c1cc([N+](=O)[O-])cc([N+](=O)[O-])c1O,inactive: 0.379%
